Measured affinities in a library of Ab-14 heavy chain variants

All variants were tested on one target, the spike HR2 peptide PDVDLGDISGINAS (SARS-CoV-2).

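The parent was found by panning a naive human phage display library on the peptide. In library AAYL49, one, two or three CDR residues were substituted; doubles and triples were drawn at random. In AlphaSeq, yeast of one mating type display the scFv and yeast of the other type display the target. The frequency of each diploid, read from paired DNA barcodes, reflects how well the two displayed proteins bind. Each replicate has its own calibration line, from reference interactions of the BCL2 family. The assay was run in three technical replicates.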

Each scFv is VH, three GGGGS repeats, VL, as in the parent Ab-14, and differs from it in the CDRs of the heavy chain only.
VH: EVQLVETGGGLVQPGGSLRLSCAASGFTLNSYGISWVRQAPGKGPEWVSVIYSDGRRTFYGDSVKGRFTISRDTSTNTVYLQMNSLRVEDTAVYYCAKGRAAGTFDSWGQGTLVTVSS
VL: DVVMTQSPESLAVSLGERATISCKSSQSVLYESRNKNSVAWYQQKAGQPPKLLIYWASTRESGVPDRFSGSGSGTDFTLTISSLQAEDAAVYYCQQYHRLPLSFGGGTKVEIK

Variants are written as CDR1, CDR2 and CDR3 of the heavy chain (limits as in the source). Parent: GFTLNSYGIS, VIYSDGRRTFYGDSVK, GRAAGTFDS. Values are log10 of the apparent Kd in nM; lower means stronger binding. Replicates are averaged; those with no signal do not enter the mean. A pair that was not seen in that replicate is written "nd"; this usually means weak binding, but a binder can also be missed.

{"CDR-H1": "GFTLNSYGII", "CDR-H2": "VIYSDGRITFYGDSVK", "CDR-H3": "GRAAGTDDS", "log10 Kd, replicates": "nd / nd / nd", "mean log10 Kd (nM)": "nd", "control signals": "2 of 9 (1.91)"}
{"CDR-H1": "GFTLNSYNIS", "CDR-H2": "VIYSDGCRTFYGDSVK", "CDR-H3": "GRAAGTFCS", "log10 Kd, replicates": "nd / nd / nd", "mean log10 Kd (nM)": "nd", "control signals": "0 of 9"}
{"CDR-H1": "GFTLNSYGIS", "CDR-H2": "VIYSDGRRTFYGDSGK", "CDR-H3": "GRAAGTDWS", "log10 Kd, replicates": "nd / nd / nd", "mean log10 Kd (nM)": "nd", "control signals": "1 of 9 (3.12)"}
{"CDR-H1": "GFTLNSYGIS", "CDR-H2": "VIYSDGRRTFYGDNNK", "CDR-H3": "GRAAGTFDS", "log10 Kd, replicates": "4.70 / 5.47 / 5.37", "mean log10 Kd (nM)": "5.18", "control signals": "4 of 9 (4.58)"}
{"CDR-H1": "GFTLNSYGIS", "CDR-H2": "VIYSQGRRTFYGDSVK", "CDR-H3": "GRAAGTKDN", "log10 Kd, replicates": "5.03 / nd / nd", "mean log10 Kd (nM)": "5.03", "control signals": "0 of 9"}
{"CDR-H1": "GFTLNVQGIS", "CDR-H2": "VKYSDGRRTFYGDSVK", "CDR-H3": "GRAAGTFDS", "log10 Kd, replicates": "nd / nd / nd", "mean log10 Kd (nM)": "nd", "control signals": "1 of 9 (4.40)"}
{"CDR-H1": "GFTDNSYGIS", "CDR-H2": "VIYSDGRRTFNGDHVK", "CDR-H3": "GRAAGTFDS", "log10 Kd, replicates": "nd / nd / nd", "mean log10 Kd (nM)": "nd", "control signals": "3 of 9 (4.41)"}
{"CDR-H1": "GFTLNSAGIS", "CDR-H2": "VIYSDGRRTFLGDSVK", "CDR-H3": "GRAAGTFDS", "log10 Kd, replicates": "5.11 / nd / nd", "mean log10 Kd (nM)": "5.11", "control signals": "0 of 9"}
{"CDR-H1": "GFTLNSYGIF", "CDR-H2": "VIYSVGRRTFYGVSVK", "CDR-H3": "GRAAGTFDS", "log10 Kd, replicates": "nd / nd / nd", "mean log10 Kd (nM)": "nd", "control signals": "1 of 9 (4.60)"}
{"CDR-H1": "GFTLNIYGIS", "CDR-H2": "VIYSDGRRTFYGDSVD", "CDR-H3": "GGAAGTFDS", "log10 Kd, replicates": "1.81 / 1.92 / 1.41", "mean log10 Kd (nM)": "1.71", "control signals": "0 of 9"}
{"CDR-H1": "GFTLNSYGIS", "CDR-H2": "VIYSDGRGTFYGDSVN", "CDR-H3": "GRAAITFDS", "log10 Kd, replicates": "nd / 4.83 / nd", "mean log10 Kd (nM)": "4.83", "control signals": "3 of 9 (3.40)"}
{"CDR-H1": "GFTLNSYGIS", "CDR-H2": "VEYEDGRRTFYGDSVK", "CDR-H3": "GRAAGTADS", "log10 Kd, replicates": "nd / nd / nd", "mean log10 Kd (nM)": "nd", "control signals": "0 of 9"}
{"CDR-H1": "GFTLNSYGIS", "CDR-H2": "VIYSDGRWTFYGDSVK", "CDR-H3": "GRIAGTFIS", "log10 Kd, replicates": "nd / nd / 3.92", "mean log10 Kd (nM)": "3.92", "control signals": "5 of 9 (4.37)"}
{"CDR-H1": "GFTLNSYGYS", "CDR-H2": "VIYSDGRRTFYGDSVK", "CDR-H3": "GRAAGTFDS", "log10 Kd, replicates": "nd / nd / nd", "mean log10 Kd (nM)": "nd", "control signals": "1 of 9 (2.92)"}
{"CDR-H1": "GFTLNSYGIS", "CDR-H2": "VIYVDGRRTFYGDSVK", "CDR-H3": "GRDAGTPDS", "log10 Kd, replicates": "4.07 / nd / 3.54", "mean log10 Kd (nM)": "3.81", "control signals": "3 of 9 (4.08)"}
{"CDR-H1": "GFTLNSYGIS", "CDR-H2": "VIYSDGRRTFYGDSVK", "CDR-H3": "GRAASTHDE", "log10 Kd, replicates": "nd / nd / nd", "mean log10 Kd (nM)": "nd", "control signals": "0 of 9"}
{"CDR-H1": "GFTLNSYGIS", "CDR-H2": "VIYSDGLRTFYGDSVK", "CDR-H3": "SRAEGTFDS", "log10 Kd, replicates": "2.44 / 2.38 / 2.34", "mean log10 Kd (nM)": "2.38", "control signals": "2 of 9 (3.44)"}
{"CDR-H1": "GATHNSYGIS", "CDR-H2": "VIYSDGRRTFYGDSVK", "CDR-H3": "GRAAGKFDS", "log10 Kd, replicates": "nd / nd / nd", "mean log10 Kd (nM)": "nd", "control signals": "0 of 9"}
{"CDR-H1": "GFTLNSYHIS", "CDR-H2": "VIISDGCRTFYGDSVK", "CDR-H3": "GRAAGTFDS", "log10 Kd, replicates": "nd / nd / nd", "mean log10 Kd (nM)": "nd", "control signals": "0 of 9"}
{"CDR-H1": "GHTLNSYGIS", "CDR-H2": "NIYSDGRRTFPGDSVK", "CDR-H3": "GRAAGTFDS", "log10 Kd, replicates": "nd / 3.66 / nd", "mean log10 Kd (nM)": "3.66", "control signals": "0 of 9"}
{"CDR-H1": "GFTLNSYGIS", "CDR-H2": "PITCDGRRTFYGDSVK", "CDR-H3": "GRAAGTFDS", "log10 Kd, replicates": "nd / nd / nd", "mean log10 Kd (nM)": "nd", "control signals": "0 of 9"}
{"CDR-H1": "SWTLNSYGIS", "CDR-H2": "VIISDGRRTFYGDSVK", "CDR-H3": "GRAAGTFDS", "log10 Kd, replicates": "nd / nd / nd", "mean log10 Kd (nM)": "nd", "control signals": "1 of 9 (4.01)"}
{"CDR-H1": "GFTLNSYGIS", "CDR-H2": "VDYRDGRRTFYGDSVK", "CDR-H3": "GRAAGTFDS", "log10 Kd, replicates": "0.37 / 0.83 / 0.64", "mean log10 Kd (nM)": "0.61", "control signals": "0 of 9"}
{"CDR-H1": "GFTLNSYGIS", "CDR-H2": "VAYFDVRRTFYGDSVK", "CDR-H3": "GRAAGTFDS", "log10 Kd, replicates": "nd / nd / nd", "mean log10 Kd (nM)": "nd", "control signals": "0 of 9"}
{"CDR-H1": "GFTLNSDGIS", "CDR-H2": "VIYSDGRMTFYGDSVK", "CDR-H3": "GKAAGTFDS", "log10 Kd, replicates": "4.67 / nd / nd", "mean log10 Kd (nM)": "4.67", "control signals": "4 of 9 (4.77)"}
{"CDR-H1": "GFTLNSYGIS", "CDR-H2": "VIYSKGRRTFYGDSLK", "CDR-H3": "GRAAGTFDP", "log10 Kd, replicates": "3.49 / 3.78 / nd", "mean log10 Kd (nM)": "3.63", "control signals": "0 of 9"}
{"CDR-H1": "GFTLNSYGIS", "CDR-H2": "VIYSDGRRTFYGDHVK", "CDR-H3": "GRAAATRDS", "log10 Kd, replicates": "6.43 / nd / 3.95", "mean log10 Kd (nM)": "5.19", "control signals": "7 of 9 (4.86)"}
{"CDR-H1": "GFTLNSYGIS", "CDR-H2": "VIYSDGRRTVYGDSVK", "CDR-H3": "GRAANTFIS", "log10 Kd, replicates": "nd / nd / 5.54", "mean log10 Kd (nM)": "5.54", "control signals": "0 of 9"}
{"CDR-H1": "NFTFNSYGIS", "CDR-H2": "VIYSDGRRTFYGDSVK", "CDR-H3": "GRAAGTFDT", "log10 Kd, replicates": "1.68 / 2.21 / 2.13", "mean log10 Kd (nM)": "2.01", "control signals": "3 of 9 (3.79)"}
{"CDR-H1": "GFTLNSYGIS", "CDR-H2": "DIYSDGRRTFNGDSVK", "CDR-H3": "GRAAGRFDS", "log10 Kd, replicates": "nd / 3.36 / nd", "mean log10 Kd (nM)": "3.36", "control signals": "1 of 9 (2.61)"}
{"CDR-H1": "GFTLNSYWIS", "CDR-H2": "VIYSDGRRTFYGDSVK", "CDR-H3": "KRAAGMFDS", "log10 Kd, replicates": "nd / nd / nd", "mean log10 Kd (nM)": "nd", "control signals": "0 of 9"}
{"CDR-H1": "GFTLNSYGIS", "CDR-H2": "VIYSPWRRTFYGDSVK", "CDR-H3": "GRAAGYFDS", "log10 Kd, replicates": "nd / nd / nd", "mean log10 Kd (nM)": "nd", "control signals": "0 of 9"}

Picked from the list: the 5 lowest averages where every replicate gave a value.

{"CDR-H1": "GFTLNSYGIS", "CDR-H2": "VDYRDGRRTFYGDSVK", "CDR-H3": "GRAAGTFDS", "log10 Kd, replicates": "0.37 / 0.83 / 0.64", "mean log10 Kd (nM)": "0.61", "control signals": "0 of 9"}
{"CDR-H1": "GFTLNIYGIS", "CDR-H2": "VIYSDGRRTFYGDSVD", "CDR-H3": "GGAAGTFDS", "log10 Kd, replicates": "1.81 / 1.92 / 1.41", "mean log10 Kd (nM)": "1.71", "control signals": "0 of 9"}
{"CDR-H1": "NFTFNSYGIS", "CDR-H2": "VIYSDGRRTFYGDSVK", "CDR-H3": "GRAAGTFDT", "log10 Kd, replicates": "1.68 / 2.21 / 2.13", "mean log10 Kd (nM)": "2.01", "control signals": "3 of 9 (3.79)"}
{"CDR-H1": "GFTLNSYGIS", "CDR-H2": "VIYSDGLRTFYGDSVK", "CDR-H3": "SRAEGTFDS", "log10 Kd, replicates": "2.44 / 2.38 / 2.34", "mean log10 Kd (nM)": "2.38", "control signals": "2 of 9 (3.44)"}
{"CDR-H1": "GFTLNSYGIS", "CDR-H2": "VIYSDGRRTFYGDNNK", "CDR-H3": "GRAAGTFDS", "log10 Kd, replicates": "4.70 / 5.47 / 5.37", "mean log10 Kd (nM)": "5.18", "control signals": "4 of 9 (4.58)"}

In this assay the parent's reference entry averaged 0.65; its copy inside this library read 4.11 (one replicate of three). Nonspecific signal, from three strains lacking the peptide, appeared in 15% of pairings of library AAYL49, centred on 4.06 (5% of these signals below 2.83); values are not corrected for it. The control count says in how many pairings with the empty strains this scFv gave a signal, with their mean in brackets.

From the AlphaSeq antibody data of Engelhart et al. 2022 (doi:10.1038/s41597-022-01779-4), copy in the FLAb collection.